The test addresses Fcγ receptor (determined with U937 cells). The test can be described thus: Fcγ receptor binding on U937 cells, method of Anderson et al.

As usually defined, the Kd is the free concentration of one partner at which half of the binding sites on the other are occupied at equilibrium, for simple one-to-one binding. The low end stands for tighter binding, the high end for weaker binding. “CD42γ1 immunoadheson (CD4 residues 1-180 fused to the constant region of human immunoglobulin γ1; product of pRKCD42γ1) (from UniProt P01730 26-205; P01857 1-330) (Fc fusion)” came in with a Kd of 3.01 nM.

Regarding “CD44γ1 immunoadheson (CD4 residues 1-366 fused to the constant region of human immunoglobulin γ1; product of pRKCD44γ1) (from UniProt P01730 26-391; P01857 1-330) (Fc fusion)”, the Kd was 2.83 nM.

The values above are taken from patent EP0832971B1.
